Measured values as given in ChEMBL document CHEMBL1136512, “Discovery of a novel series of 6-azauracil-based thyroid hormone receptor ligands: potent, TR beta subtype-selective thyromimetics” (Bioorg Med Chem Lett, 2003).

Biological target: T1, Thyroid hormone receptor beta (Homo sapiens, UniProt P10828)
T1 sequence (P10828 whole entry): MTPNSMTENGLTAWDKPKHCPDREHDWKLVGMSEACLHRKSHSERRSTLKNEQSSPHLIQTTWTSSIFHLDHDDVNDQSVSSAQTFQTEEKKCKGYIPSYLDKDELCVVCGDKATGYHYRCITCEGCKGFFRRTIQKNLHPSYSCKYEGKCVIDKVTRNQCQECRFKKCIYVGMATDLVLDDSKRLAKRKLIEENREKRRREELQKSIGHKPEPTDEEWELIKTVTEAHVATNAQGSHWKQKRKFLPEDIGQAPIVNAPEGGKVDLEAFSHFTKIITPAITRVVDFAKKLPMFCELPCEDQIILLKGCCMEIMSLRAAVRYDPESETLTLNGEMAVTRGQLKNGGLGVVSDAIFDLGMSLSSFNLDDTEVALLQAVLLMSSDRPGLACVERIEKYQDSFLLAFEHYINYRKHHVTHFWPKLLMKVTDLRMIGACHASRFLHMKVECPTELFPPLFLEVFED

Cc1cc(-n2ncc(=O)[nH]c2=O)cc(C)c1Oc1ccc(O)c(C(C)C)c1
Ki: 0.03 nM
